The list shows a part of the results.

Amino acid sequences for entries named in this document (tags omitted).
UniProt Q13216, whole entry: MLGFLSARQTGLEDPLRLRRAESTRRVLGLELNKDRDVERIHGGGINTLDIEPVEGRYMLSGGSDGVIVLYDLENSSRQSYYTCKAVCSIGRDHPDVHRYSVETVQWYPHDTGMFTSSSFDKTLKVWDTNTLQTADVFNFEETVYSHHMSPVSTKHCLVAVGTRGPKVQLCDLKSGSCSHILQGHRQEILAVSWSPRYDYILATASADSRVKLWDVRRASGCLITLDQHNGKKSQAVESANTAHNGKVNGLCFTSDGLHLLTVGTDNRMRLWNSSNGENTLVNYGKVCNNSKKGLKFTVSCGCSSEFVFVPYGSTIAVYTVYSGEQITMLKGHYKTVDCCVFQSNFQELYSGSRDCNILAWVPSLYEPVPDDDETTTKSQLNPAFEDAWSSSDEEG
UniProt Q2YD98, whole entry: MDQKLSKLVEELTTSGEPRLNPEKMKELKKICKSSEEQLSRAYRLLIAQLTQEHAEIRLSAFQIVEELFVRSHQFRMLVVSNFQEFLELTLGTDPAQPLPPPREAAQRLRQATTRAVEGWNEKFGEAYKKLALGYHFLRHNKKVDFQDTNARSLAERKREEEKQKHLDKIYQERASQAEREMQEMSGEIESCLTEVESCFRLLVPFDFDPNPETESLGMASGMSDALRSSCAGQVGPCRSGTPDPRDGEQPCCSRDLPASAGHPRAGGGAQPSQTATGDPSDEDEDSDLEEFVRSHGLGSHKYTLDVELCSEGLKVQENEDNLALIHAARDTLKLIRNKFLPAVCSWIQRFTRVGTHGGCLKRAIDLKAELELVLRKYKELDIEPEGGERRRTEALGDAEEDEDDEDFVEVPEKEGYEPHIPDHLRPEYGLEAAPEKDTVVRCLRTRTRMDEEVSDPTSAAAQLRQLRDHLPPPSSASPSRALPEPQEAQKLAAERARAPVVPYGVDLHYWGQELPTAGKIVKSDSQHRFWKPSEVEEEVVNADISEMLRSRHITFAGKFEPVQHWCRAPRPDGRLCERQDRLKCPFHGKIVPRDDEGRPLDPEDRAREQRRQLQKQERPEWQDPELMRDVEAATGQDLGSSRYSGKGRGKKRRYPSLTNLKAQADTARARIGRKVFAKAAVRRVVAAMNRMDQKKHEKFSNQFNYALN
DNA excision repair protein ERCC-6, UniProt Q03468, whole entry: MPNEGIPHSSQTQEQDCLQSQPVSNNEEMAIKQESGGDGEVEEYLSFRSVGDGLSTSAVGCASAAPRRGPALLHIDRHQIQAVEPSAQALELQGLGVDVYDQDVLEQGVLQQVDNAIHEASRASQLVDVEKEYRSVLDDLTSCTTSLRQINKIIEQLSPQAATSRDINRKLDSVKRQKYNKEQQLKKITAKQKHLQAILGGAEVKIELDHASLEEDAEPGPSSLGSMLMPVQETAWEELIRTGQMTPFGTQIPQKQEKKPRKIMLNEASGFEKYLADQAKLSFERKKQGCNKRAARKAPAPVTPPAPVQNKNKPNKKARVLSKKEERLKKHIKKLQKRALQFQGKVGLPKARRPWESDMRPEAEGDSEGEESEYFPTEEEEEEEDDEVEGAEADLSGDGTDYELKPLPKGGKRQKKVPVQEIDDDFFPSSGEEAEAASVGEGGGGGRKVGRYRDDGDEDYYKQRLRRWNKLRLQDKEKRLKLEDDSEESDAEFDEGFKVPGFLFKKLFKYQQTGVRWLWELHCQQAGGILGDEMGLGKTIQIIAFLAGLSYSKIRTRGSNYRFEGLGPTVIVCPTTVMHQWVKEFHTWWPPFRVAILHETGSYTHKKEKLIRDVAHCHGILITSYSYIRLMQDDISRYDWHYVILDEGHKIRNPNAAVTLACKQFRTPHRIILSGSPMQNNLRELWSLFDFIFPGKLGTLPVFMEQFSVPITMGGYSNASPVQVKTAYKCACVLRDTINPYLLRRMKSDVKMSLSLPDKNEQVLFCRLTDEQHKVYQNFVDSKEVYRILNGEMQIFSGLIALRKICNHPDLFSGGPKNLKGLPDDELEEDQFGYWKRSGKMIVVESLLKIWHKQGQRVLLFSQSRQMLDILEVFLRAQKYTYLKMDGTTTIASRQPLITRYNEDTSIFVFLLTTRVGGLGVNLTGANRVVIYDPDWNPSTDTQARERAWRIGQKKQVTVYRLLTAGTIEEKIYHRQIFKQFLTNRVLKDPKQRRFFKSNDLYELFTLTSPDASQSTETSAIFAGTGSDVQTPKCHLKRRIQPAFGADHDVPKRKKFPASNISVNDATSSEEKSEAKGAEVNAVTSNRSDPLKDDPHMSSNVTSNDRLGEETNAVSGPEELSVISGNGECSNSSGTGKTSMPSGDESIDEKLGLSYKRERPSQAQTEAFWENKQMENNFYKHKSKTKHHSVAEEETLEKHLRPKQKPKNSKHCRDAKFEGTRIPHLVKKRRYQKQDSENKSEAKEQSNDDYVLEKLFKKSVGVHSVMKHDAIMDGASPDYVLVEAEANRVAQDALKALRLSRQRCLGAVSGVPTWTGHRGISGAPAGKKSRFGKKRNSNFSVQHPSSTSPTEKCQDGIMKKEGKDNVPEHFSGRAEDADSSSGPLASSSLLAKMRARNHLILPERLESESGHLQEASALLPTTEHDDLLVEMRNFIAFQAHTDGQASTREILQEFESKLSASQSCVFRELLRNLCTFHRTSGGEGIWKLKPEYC

Assay [1] concerns the target DNA excision repair protein ERCC-8 (UniProt Q13216). Put plainly: cross-link between two proteins; cross-linking mass spectrometry.
In assay [2] the target is UV-stimulated scaffold protein A (UniProt Q2YD98). The description is as above.

As to “DNA excision repair protein ERCC-6, Q03468”, the “listed as a hit” value in assay [1] and in assay [2] was “yes” each time.

These data come from PMC11286758.
